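Briefly, cells in 96-well plates were exposed to five compound concentrations for 48 h, and endpoints were estimated by linear interpolation. At the GI50, growth is halved. Definition used: TGI = concentration required for complete inhibition of growth.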
Legend:
Assay in all cases: NCI-60 cell line screen, 48 h
786-0 renal = test system: 786-0 renal
A498 renal = test system: A498 renal
A549 NSCLC = test system: A549 NSCLC
ACHN renal = test system: ACHN renal
CAKI-1 renal = test system: CAKI-1 renal
CCRF-CEM leukemia = test system: CCRF-CEM leukemia
COLO 205 colon = test system: COLO 205 colon
DU-145 prostate = test system: DU-145 prostate
EKVX NSCLC = test system: EKVX NSCLC
HCT-116 colon = test system: HCT-116 colon
HCT-15 colon = test system: HCT-15 colon
HL-60(TB) leukemia = test system: HL-60(TB) leukemia
HOP-62 NSCLC = test system: HOP-62 NSCLC
HS 578T breast = test system: HS 578T breast
HT29 colon = test system: HT29 colon
IGROV1 ovarian = test system: IGROV1 ovarian
K-562 leukemia = test system: K-562 leukemia
KM12 colon = test system: KM12 colon
LOX IMVI melanoma = test system: LOX IMVI melanoma
M14 melanoma = test system: M14 melanoma
MALME-3M melanoma = test system: MALME-3M melanoma
MCF7 breast = test system: MCF7 breast
MDA-MB-231 breast = test system: MDA-MB-231 breast
MDA-MB-435 = test system: MDA-MB-435
MDA-N = test system: MDA-N
MOLT-4 leukemia = test system: MOLT-4 leukemia
NCI-H226 lung = test system: NCI-H226 lung
NCI-H23 lung = test system: NCI-H23 lung
NCI-H322M lung = test system: NCI-H322M lung
NCI-H460 lung = test system: NCI-H460 lung
NCI-H522 lung = test system: NCI-H522 lung
NCI/ADR-RES ovarian = test system: NCI/ADR-RES ovarian
OVCAR-3 ovarian = test system: OVCAR-3 ovarian
OVCAR-4 ovarian = test system: OVCAR-4 ovarian
OVCAR-5 ovarian = test system: OVCAR-5 ovarian
OVCAR-8 ovarian = test system: OVCAR-8 ovarian
PC-3 prostate = test system: PC-3 prostate
RPMI-8226 leukemia = test system: RPMI-8226 leukemia
RXF 393 renal = test system: RXF 393 renal
SF-268 CNS = test system: SF-268 CNS
SF-295 CNS = test system: SF-295 CNS
SF-539 CNS = test system: SF-539 CNS
SK-MEL-2 melanoma = test system: SK-MEL-2 melanoma
SK-MEL-28 melanoma = test system: SK-MEL-28 melanoma
SK-MEL-5 melanoma = test system: SK-MEL-5 melanoma
SK-OV-3 ovarian = test system: SK-OV-3 ovarian
SN12C renal = test system: SN12C renal
SNB-19 CNS = test system: SNB-19 CNS
SNB-75 CNS = test system: SNB-75 CNS
SW-620 colon = test system: SW-620 colon
T-47D breast = test system: T-47D breast
TK-10 renal = test system: TK-10 renal
UACC-257 melanoma = test system: UACC-257 melanoma
UACC-62 melanoma = test system: UACC-62 melanoma
UO-31 renal = test system: UO-31 renal

Compound: O=[N+]([O-])C1([N+](=O)[O-])CC2(Cc3c1no[n+]3[O-])OCCO2
- GI50 (786-0 renal): 35.7 µM
- TGI (786-0 renal): > 100 µM
- GI50 (A498 renal): 85.7 µM
- TGI (A498 renal): > 100 µM
- GI50 (A549 NSCLC): 21.2 µM
- TGI (A549 NSCLC): 50.5 µM
- GI50 (ACHN renal): 42.1 µM
- TGI (ACHN renal): > 100 µM
- GI50 (CAKI-1 renal): 55.1 µM
- TGI (CAKI-1 renal): > 100 µM
- GI50 (CCRF-CEM leukemia): 29.4 µM
- TGI (CCRF-CEM leukemia): 81.4 µM
- GI50 (COLO 205 colon): 9.48 µM
- TGI (COLO 205 colon): 24.1 µM
- GI50 (DU-145 prostate): > 100 µM
- TGI (DU-145 prostate): > 100 µM
- GI50 (EKVX NSCLC): 56.4 µM
- TGI (EKVX NSCLC): > 100 µM
- GI50 (HCT-116 colon): 20.1 µM
- TGI (HCT-116 colon): 48.3 µM
- GI50 (HCT-15 colon): 25.3 µM
- TGI (HCT-15 colon): 57.7 µM
- GI50 (HL-60(TB) leukemia): 29.7 µM
- TGI (HL-60(TB) leukemia): 53.7 µM
- GI50 (HOP-62 NSCLC): 29.6 µM
- TGI (HOP-62 NSCLC): 69.8 µM
- GI50 (HS 578T breast): 49.5 µM
- TGI (HS 578T breast): > 100 µM
- GI50 (HT29 colon): 11.6 µM
- TGI (HT29 colon): 39.2 µM
- GI50 (IGROV1 ovarian): 44.2 µM
- TGI (IGROV1 ovarian): > 100 µM
- GI50 (K-562 leukemia): 37.8 µM
- TGI (K-562 leukemia): > 100 µM
- GI50 (KM12 colon): 8.92 µM
- TGI (KM12 colon): 28.7 µM
- GI50 (LOX IMVI melanoma): 14.9 µM
- TGI (LOX IMVI melanoma): 40.7 µM
- GI50 (M14 melanoma): 15.1 µM
- TGI (M14 melanoma): 30.7 µM
- GI50 (MALME-3M melanoma): 19 µM
- TGI (MALME-3M melanoma): 35 µM
- GI50 (MCF7 breast): 25.1 µM
- TGI (MCF7 breast): 82.5 µM
- GI50 (MDA-MB-231 breast): 27.6 µM
- TGI (MDA-MB-231 breast): 59.1 µM
- GI50 (MDA-MB-435): 16.5 µM
- TGI (MDA-MB-435): 55.8 µM
- GI50 (MDA-N): 15.4 µM
- TGI (MDA-N): > 100 µM
- GI50 (MOLT-4 leukemia): 29.1 µM
- TGI (MOLT-4 leukemia): 71 µM
- GI50 (NCI-H226 lung): > 100 µM
- TGI (NCI-H226 lung): > 100 µM
- GI50 (NCI-H23 lung): 27.8 µM
- TGI (NCI-H23 lung): 66.9 µM
- GI50 (NCI-H322M lung): 35 µM
- TGI (NCI-H322M lung): > 100 µM
- GI50 (NCI-H460 lung): 16.5 µM
- TGI (NCI-H460 lung): 35.3 µM
- GI50 (NCI-H522 lung): 29.1 µM
- TGI (NCI-H522 lung): 82.7 µM
- GI50 (NCI/ADR-RES ovarian): 42.6 µM
- TGI (NCI/ADR-RES ovarian): > 100 µM
- GI50 (OVCAR-3 ovarian): 16.1 µM
- TGI (OVCAR-3 ovarian): 41.1 µM
- GI50 (OVCAR-4 ovarian): 20.4 µM
- TGI (OVCAR-4 ovarian): 51.3 µM
- GI50 (OVCAR-5 ovarian): 45.4 µM
- TGI (OVCAR-5 ovarian): > 100 µM
- GI50 (OVCAR-8 ovarian): 21.1 µM
- TGI (OVCAR-8 ovarian): > 100 µM
- GI50 (PC-3 prostate): 32.8 µM
- TGI (PC-3 prostate): > 100 µM
- GI50 (RPMI-8226 leukemia): 37.5 µM
- TGI (RPMI-8226 leukemia): 87.2 µM
- GI50 (RXF 393 renal): 29.5 µM
- TGI (RXF 393 renal): 93.2 µM
- GI50 (SF-268 CNS): 62.4 µM
- TGI (SF-268 CNS): > 100 µM
- GI50 (SF-295 CNS): > 100 µM
- TGI (SF-295 CNS): > 100 µM
- GI50 (SF-539 CNS): 27.6 µM
- TGI (SF-539 CNS): 54.7 µM
- GI50 (SK-MEL-2 melanoma): 40.4 µM
- TGI (SK-MEL-2 melanoma): > 100 µM
- GI50 (SK-MEL-28 melanoma): 39.4 µM
- TGI (SK-MEL-28 melanoma): > 100 µM
- GI50 (SK-MEL-5 melanoma): 31.5 µM
- TGI (SK-MEL-5 melanoma): 59.5 µM
- GI50 (SK-OV-3 ovarian): > 100 µM
- TGI (SK-OV-3 ovarian): > 100 µM
- GI50 (SN12C renal): 45 µM
- TGI (SN12C renal): > 100 µM
- GI50 (SNB-19 CNS): 90 µM
- TGI (SNB-19 CNS): > 100 µM
- GI50 (SNB-75 CNS): 28.7 µM
- TGI (SNB-75 CNS): 90.1 µM
- GI50 (SW-620 colon): 19.4 µM
- TGI (SW-620 colon): 38.9 µM
- GI50 (T-47D breast): 15.4 µM
- TGI (T-47D breast): > 100 µM
- GI50 (TK-10 renal): 23.2 µM
- TGI (TK-10 renal): 64.5 µM
- GI50 (UACC-257 melanoma): 18.2 µM
- TGI (UACC-257 melanoma): 40.3 µM
- GI50 (UACC-62 melanoma): 38.8 µM
- TGI (UACC-62 melanoma): > 100 µM
- GI50 (UO-31 renal): 18.6 µM
- TGI (UO-31 renal): 38.6 µM

Source: PubChem BioAssay (NCI)
